Experimental data: patent US7425339

Target: Tax HLA-A2/β2m complex, biotinylated (human)
Assay: SPR (BIAcore 3000), equilibrium fit, biotinylated pMHC on streptavidin chip

Substance | Kd [µM]
soluble human CD8αα Gln2→Lys mutant, expressed from pEX106 (from UniProt P01732 1-122) (receptor) | 363
soluble human CD8αα Leu97→Tyr mutant, expressed from pEX109 (from UniProt P01732 1-122) (receptor) | 630
